Source: ChEMBL document CHEMBL1129668 (J Med Chem, 1996)

Chains of the proteins cited; added tags and fusions are not shown.
UniProt P31652, whole entry: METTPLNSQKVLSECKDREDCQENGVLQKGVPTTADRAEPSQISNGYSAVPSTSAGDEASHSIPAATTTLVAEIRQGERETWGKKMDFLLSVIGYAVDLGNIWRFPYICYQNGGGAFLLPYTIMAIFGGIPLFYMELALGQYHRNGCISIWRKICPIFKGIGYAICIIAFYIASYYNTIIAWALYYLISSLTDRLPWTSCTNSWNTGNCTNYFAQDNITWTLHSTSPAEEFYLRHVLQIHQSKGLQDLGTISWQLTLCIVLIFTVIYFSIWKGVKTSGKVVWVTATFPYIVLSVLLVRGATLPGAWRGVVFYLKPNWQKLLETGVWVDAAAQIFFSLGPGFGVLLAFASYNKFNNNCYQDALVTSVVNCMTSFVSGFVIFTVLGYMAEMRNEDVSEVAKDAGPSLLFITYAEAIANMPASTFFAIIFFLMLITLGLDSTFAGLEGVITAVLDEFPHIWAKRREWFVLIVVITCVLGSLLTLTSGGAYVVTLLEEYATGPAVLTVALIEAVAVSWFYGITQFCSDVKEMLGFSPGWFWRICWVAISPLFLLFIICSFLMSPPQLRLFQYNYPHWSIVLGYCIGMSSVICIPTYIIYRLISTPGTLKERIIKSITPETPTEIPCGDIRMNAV
UniProt Q9WTR4, whole entry: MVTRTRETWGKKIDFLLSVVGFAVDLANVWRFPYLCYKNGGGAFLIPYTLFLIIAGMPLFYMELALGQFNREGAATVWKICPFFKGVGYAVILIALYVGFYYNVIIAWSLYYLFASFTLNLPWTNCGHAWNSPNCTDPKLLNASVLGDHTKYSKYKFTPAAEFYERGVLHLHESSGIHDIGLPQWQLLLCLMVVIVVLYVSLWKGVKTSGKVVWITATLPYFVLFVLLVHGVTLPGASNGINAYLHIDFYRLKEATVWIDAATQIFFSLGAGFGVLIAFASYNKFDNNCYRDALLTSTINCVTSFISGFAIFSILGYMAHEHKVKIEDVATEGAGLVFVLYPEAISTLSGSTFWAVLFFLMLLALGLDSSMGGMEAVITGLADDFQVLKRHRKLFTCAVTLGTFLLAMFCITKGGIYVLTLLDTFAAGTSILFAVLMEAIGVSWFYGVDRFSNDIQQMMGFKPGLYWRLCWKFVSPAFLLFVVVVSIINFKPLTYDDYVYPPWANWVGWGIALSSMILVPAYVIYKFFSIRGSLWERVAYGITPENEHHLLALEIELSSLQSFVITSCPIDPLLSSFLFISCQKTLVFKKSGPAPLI

Columns and labels:
[1] = molecular target: Sodium-dependent serotonin transporter (Rattus norvegicus, UniProt P31652); experiment: In vitro binding affinity towards serotonin transporter in rat cerebral cortical homogenates by [3H]paroxetine displacement.
[2] = molecular target: Norepinephrine transporter (Rattus norvegicus, UniProt Q9WTR4); experiment: In vitro binding affinity towards Norepinephrine transporter rat cerebral cortical homogenates by [3H]nisoxetine displacement.
Procedure, shortened: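 Crude membrane fraction of rat frontoparietal cerebral cortex in 50 mM Tris-HCl (pH 7.4) with Na+, K+ (5 mM). […] Typically six concentrations in duplicate; curves computer-fit for IC50, converted to Ki = IC50/(1 + [L]/K_d).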

## COC(=O)[C@H]1[C@@H](OC(=O)c2ccccc2)C[C@@H]2CC[C@H]1N2C [COCAINE]
[1]
  Ki: > 10 µM

## Fc1ccc(C(OCCN2CCN(CCCc3ccccc3)CC2)c2ccc(F)cc2)cc1 [VANOXERINE]
[2]
  Ki: > 20 µM
